We go through 1 compound from PubChem BioAssay AID1508641 (National Center for Advancing Translational Sciences (NCATS), 2021).

The test can be described thus: Cell viability qHTS assay in S16 Pmp22-F2sN cells - Confirmatory screen. As to conditions: S16 Schwann cells viability, CellTiter-Glo ATP luminescence, 24 h; at 57.5 µM (top of the series). An excerpt:
Assay Provider: Jim Inglese Ph.D. National Center for Advancing Translational Science, National Institutes of Health, Rockville, MD CMT is a heterogeneous group of neurological disorders that affect approximately 1 in 2,500 people. In particular, the most common form of CMT, CMT1A is genetically linked to the duplication of the PMP22 gene which leads to Schwann cell overexpression, thus manifesting itself as a typical case of dose-sensitive diseases. […] We can further discriminate the effect of all transcriptionally active molecules on PMP22 translation or stability with an assay that incorporates a short NLuc peptide (HiBiT) at the C-terminus of expressed PMP22 (S16(f8) PMP22-HiBiT) allowing alpha complementation and luminescence detection of membrane-associated PMP22 protein. […] Miniaturization of these assays to 1536-well plate format for quantitative high throughput screening (qHTS) yielded rich data sets immediately from the qHTS assay (S16(c9) Pmp22-F2sN), when compared with data from a cell viability assay (Cell TiterGlo) to identify compounds that decreased the output signals through cellular toxicity to streamline the selection process of actives for subsequent characterization using the HiBiT assay (S16(f8) PMP22-HiBiT). […]
(qHTS replaces the single test concentration by a dilution series.)

This is a selection; strong and weak results do not stand in their true shares. Records with an inconclusive call do not appear. Activity calls are given as the source filed them. Calls come from the whole dose curve; as a rule, active = well fitted cell-killing curve with a large enough effect; inconclusive = small, poorly fitted or top-dose-only effect, or effect the other way; inactive = flat fitted curve, though single readings scatter.
% is set by controls: 0 for no effect and ±100 for the full control effect.

In the case of `CC(C)(C)c1ccc(C(=O)NCC2(N3CCOCC3)CCCCC2)cc1`, the activity change, negative = viability loss was inactive: 1.21%.
